{"source": "PubChem BioAssay AID720511", "about": "(Broad Institute, 2013)", "note": "The list shows a part of the results, in another mix than the full data. Some salts or complexes appear as unconnected parts, following the source record. Calls of active or inactive are those of the source.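 The calls were made as follows: active = mean added fluorescence quench of at least 8% versus neutral control, with both replicates also reaching 8%; inconclusive = only one of the mean or replicate conditions met; inactive = mean below 8% and not both replicates reaching 8%.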"}
{"assay": "F508del CFTR correction, initial screen, CFBE line, single point (AID 720511);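 also: cells transiently co-express mutant CFTR-F508del with the halide-sensitive YFP; corrector assay measuring rescue of mutant channel to the surface after 24 h compound exposure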", "conditions": "CFBE cells, YFP halide quenching, at 7.58 µM, hits give high values, % fluorescence drop versus neutral controls, stimulated with forskolin plus potentiator P3"}
{"smiles": "Cc1cc(C)cc(OP(C)(N)=O)c1", "note": "(centres undefined)", "activity (quench increase)": "inactive: -1.86%"}
{"smiles": "COc1ccccc1OP(C)(=O)Nc1cc(Cl)ccc1C", "note": "(centres undefined)", "activity (quench increase)": "inactive: 0.917%"}
{"smiles": "O=[N+]([O-])c1cc([N+](=O)[O-])c(Nc2cccnc2)c([N+](=O)[O-])c1", "activity (quench increase)": "inactive: -3.6%"}
{"smiles": "O=[N+]([O-])c1ccc2c(c1)C=Nc1ccccc1O2", "activity (quench increase)": "inactive: 1.5%"}
{"smiles": "CC(C)(C)c1ccc(OP(C)(=O)Nc2ccc(SC(F)(F)F)cc2)cc1", "note": "(centres undefined)", "activity (quench increase)": "inactive: 3.66%"}
{"smiles": "Cc1cccc(C)c1OP(C)(N)=O", "note": "(centres undefined)", "activity (quench increase)": "inactive: 0.02%"}
{"smiles": "COc1ccccc1-c1ccccn1.O=[N+]([O-])c1cc([N+](=O)[O-])c(O)c([N+](=O)[O-])c1", "activity (quench increase)": "inactive: 3.4%"}
{"smiles": "CCN(CC)CCCOC(=O)C(O)(c1ccccc1)c1ccccc1", "activity (quench increase)": "inactive: 0.539%"}
{"smiles": "O=[N+]([O-])c1cc([N+](=O)[O-])c(O)c([N+](=O)[O-])c1.c1ccc(Oc2ccncc2)cc1", "activity (quench increase)": "inactive: -0.957%"}
{"smiles": "CCOC(=O)c1ccc(NP(C)(=O)Oc2ccc(OC)cc2)cc1", "note": "(centres undefined)", "activity (quench increase)": "inactive: 0.302%"}
{"smiles": "CP(=O)(Nc1ccccn1)Oc1ccc(Cl)cc1", "note": "(centres undefined)", "activity (quench increase)": "inactive: 0.656%"}
{"smiles": "CP(=O)(Nc1ccc(SC(F)(F)F)cc1)Oc1ccc(Cl)cc1", "note": "(centres undefined)", "activity (quench increase)": "inactive: -0.47%"}
{"smiles": "CP(=O)(Oc1ccccc1)OC(c1ccccc1)C(F)(F)F", "note": "(centres undefined)", "activity (quench increase)": "inactive: 0.152%"}
{"smiles": "CCc1ccc(OP(C)(=O)N2CCN(c3ccc([N+](=O)[O-])cc3)CC2)cc1", "note": "(centres undefined)", "activity (quench increase)": "inactive: 1.64%"}
{"smiles": "CP(=O)(NC(=O)Nc1ccccc1)Oc1ccccc1", "note": "(centres undefined)", "activity (quench increase)": "inactive: -1.55%"}
{"smiles": "CP(=O)(Nc1ccccc1Br)Oc1ccccc1", "note": "(centres undefined)", "activity (quench increase)": "inactive: -3.07%"}
{"smiles": "COc1ccccc1OP(C)(=O)Nc1ccccc1", "note": "(centres undefined)", "activity (quench increase)": "inactive: -2.27%"}
{"smiles": "COc1ccc(-c2ccccn2)cc1.O=[N+]([O-])c1cc([N+](=O)[O-])c(O)c([N+](=O)[O-])c1", "activity (quench increase)": "inactive: 3.3%"}
{"smiles": "CCCOc1ccc(NP(C)(=O)Oc2ccc(Cl)cc2)cc1", "note": "(centres undefined)", "activity (quench increase)": "inactive: -0.153%"}
{"smiles": "O=[N+]([O-])c1cc([N+](=O)[O-])c(Nc2nnnn2CCO)c([N+](=O)[O-])c1", "activity (quench increase)": "inactive: 0.816%"}
{"smiles": "CCOC(=O)C(CC)C1=NC(C)(C)Cc2ccccc21.O=[N+]([O-])c1cc([N+](=O)[O-])c(O)c([N+](=O)[O-])c1", "note": "(centres undefined)", "activity (quench increase)": "inactive: -1.55%"}
{"smiles": "O=[N+]([O-])c1cc([N+](=O)[O-])c(-c2cnn(-c3ccccc3)c2)c([N+](=O)[O-])c1", "activity (quench increase)": "inactive: 1.51%"}
{"smiles": "O=[N+]([O-])c1cc([N+](=O)[O-])c(-n2nnc3ccccc32)c([N+](=O)[O-])c1", "activity (quench increase)": "inactive: 0.569%"}
{"smiles": "CN(Cc1cccnc1)C(=O)COc1ccc(Cl)c(Cl)c1.O=[N+]([O-])c1cc([N+](=O)[O-])c(O)c([N+](=O)[O-])c1", "activity (quench increase)": "inactive: 2.74%"}
{"smiles": "CP(=O)(Nc1cccc(Br)c1)Oc1ccccc1", "note": "(centres undefined)", "activity (quench increase)": "inactive: 0.132%"}
{"smiles": "COc1ccccc1OP(C)(=O)Nc1cccc(Br)c1", "note": "(centres undefined)", "activity (quench increase)": "inactive: -0.371%"}
{"smiles": "CCOC(=O)c1ccc(NP(C)(=O)Oc2cc(C)cc(C)c2)cc1", "note": "(centres undefined)", "activity (quench increase)": "inactive: -2.74%"}
{"smiles": "Cc1cc(C)cc(OP(C)(=O)Nc2ccc(C)cc2C)c1", "note": "(centres undefined)", "activity (quench increase)": "inactive: -0.438%"}
{"smiles": "O=C(O)c1cccc(Nc2c([N+](=O)[O-])cc([N+](=O)[O-])cc2[N+](=O)[O-])c1", "activity (quench increase)": "inactive: -0.427%"}
{"smiles": "Cc1c([N+](=O)[O-])cc([N+](=O)[O-])c(Br)c1[N+](=O)[O-]", "activity (quench increase)": "inactive: -3.06%"}
{"smiles": "O=[N+]([O-])c1cc([N+](=O)[O-])c(OC2CCCCC2O)c([N+](=O)[O-])c1", "note": "(centres undefined)", "activity (quench increase)": "inactive: 4.04%"}
{"smiles": "CCCCCOc1ccc(NP(C)(=O)Oc2ccc(Cl)cc2Cl)cc1", "note": "(centres undefined)", "activity (quench increase)": "inactive: -1.94%"}
{"smiles": "CCN(CC)CCCNc1ccccc1[N+](=O)[O-].O=[N+]([O-])c1cc([N+](=O)[O-])c(O)c([N+](=O)[O-])c1", "activity (quench increase)": "inactive: -1.39%"}
{"smiles": "COc1ccc(OP(C)(=O)Nc2ccc(SC(F)(F)F)cc2)cc1", "note": "(centres undefined)", "activity (quench increase)": "inactive: -0.729%"}
{"smiles": "O=C(OC1CN2CCC1CC2)c1ccc([N+](=O)[O-])cc1", "note": "(centres undefined)", "activity (quench increase)": "inactive: 1.12%"}
{"smiles": "O=C(OCCN1CCN(CCOCc2ccccc2)CC1)C(O)(c1ccccc1)c1ccccc1", "activity (quench increase)": "inactive: -0.36%"}
{"smiles": "COc1ccc2c(c1O)-c1c(O)c(OC)cc3c1[C@H](C2)[N+](C)(C)CC3.O=[N+]([O-])c1cc([N+](=O)[O-])c([O-])c([N+](=O)[O-])c1[O-]", "activity (quench increase)": "inactive: 0.742%"}
{"smiles": "O=[N+]([O-])c1cc([N+](=O)[O-])c(Nc2ccc(Cl)cc2)c([N+](=O)[O-])c1", "activity (quench increase)": "inactive: -7.66%"}
{"smiles": "CP(=O)(Nc1ccccc1F)Oc1ccccc1", "note": "(centres undefined)", "activity (quench increase)": "inactive: -0.0165%"}
{"smiles": "O=[N+]([O-])c1cc([N+](=O)[O-])c(C(F)(F)F)c([N+](=O)[O-])c1O", "activity (quench increase)": "inactive: -0.633%"}
{"smiles": "CP(=O)(Nc1ccc(SC(F)(F)F)cc1)Oc1ccc(F)cc1", "note": "(centres undefined)", "activity (quench increase)": "inactive: -1.89%"}
{"smiles": "CCOP(=O)(CC)OCC", "activity (quench increase)": "inactive: 0.109%"}
{"smiles": "O=[N+]([O-])c1ccc(OP2(=O)COCCO2)cc1", "note": "(centres undefined)", "activity (quench increase)": "inactive: 0.009%"}
{"smiles": "Cc1cc(-c2cccc3ccccc23)c(C)cn1.O=[N+]([O-])c1cc([N+](=O)[O-])c(O)c([N+](=O)[O-])c1", "activity (quench increase)": "inactive: -0.251%"}
{"smiles": "Cc1c(C(c2ccc3c(c2)OCO3)c2c(C)n(C)n(-c3ccccc3)c2=O)c(=O)n(-c2ccccc2)n1C.O=[N+]([O-])c1cc([N+](=O)[O-])c(O)c([N+](=O)[O-])c1", "activity (quench increase)": "inactive: -1.43%"}
{"smiles": "COc1ccc(NP(C)(=O)Oc2ccccc2OC)cc1", "note": "(centres undefined)", "activity (quench increase)": "inactive: -0.687%"}
{"smiles": "Nc1ccc2c(ccc3cccnc32)n1.O=[N+]([O-])c1cc([N+](=O)[O-])c(O)c([N+](=O)[O-])c1", "activity (quench increase)": "inactive: 3%"}
{"smiles": "CCOC(=O)c1ccc(NP(C)(=O)Oc2ccc(Cl)cc2)cc1", "note": "(centres undefined)", "activity (quench increase)": "inactive: -0.843%"}
{"smiles": "COc1ccccc1OP(C)(=O)Nc1ccccc1Br", "note": "(centres undefined)", "activity (quench increase)": "inactive: -0.55%"}
{"smiles": "CN(C)C(=O)c1c([N+](=O)[O-])cc([N+](=O)[O-])cc1[N+](=O)[O-]", "activity (quench increase)": "inactive: -4.93%"}
{"smiles": "O=C(OCCCN1CCCC1)C(O)(c1ccccc1)C1CCCCC1", "note": "(centres undefined)", "activity (quench increase)": "inactive: -0.282%"}
{"smiles": "CCc1ccc(OP(C)(=O)Nc2cccnc2)cc1", "note": "(centres undefined)", "activity (quench increase)": "inactive: -2.75%"}
{"smiles": "O=[N+]([O-])c1cc([N+](=O)[O-])c(Nc2ccccn2)c([N+](=O)[O-])c1", "activity (quench increase)": "inactive: -3.15%"}
{"smiles": "COc1ccccc1OP(C)(=O)Nc1ccc(Br)cc1", "note": "(centres undefined)", "activity (quench increase)": "inactive: -0.853%"}
{"smiles": "CP(=O)(OCCOc1ccccc1)OCCOc1ccccc1", "activity (quench increase)": "inactive: 0.443%"}
{"smiles": "CP(=O)(Nc1ccc(Cl)cc1Cl)Oc1ccccc1", "note": "(centres undefined)", "activity (quench increase)": "inactive: -3.71%"}
{"smiles": "CCCCCCCCCCCCCCCC1C[N+](C)(C)CCOP(C)(=O)O1", "note": "(centres undefined)", "activity (quench increase)": "inactive: 3.58%"}
{"smiles": "O=C1C(O)=C([N+](=O)[O-])C(=O)C(O)=C1[N+](=O)[O-]", "activity (quench increase)": "inactive: -1.66%"}
{"smiles": "Cc1cc(C)cc(OP(C)(=O)Nc2cccc(C(F)(F)F)c2)c1", "note": "(centres undefined)", "activity (quench increase)": "inactive: -1.31%"}
